Apparent affinities of Ab-14 variants for a coronavirus HR2 peptide

Target peptide (SARS-CoV-2 spike, HR2 region): PDVDLGDISGINAS

Each scFv is VH, the linker GGGGSGGGGSGGGGS, VL, as in the parent Ab-14, and differs from it in the CDRs of the heavy chain only.
VH: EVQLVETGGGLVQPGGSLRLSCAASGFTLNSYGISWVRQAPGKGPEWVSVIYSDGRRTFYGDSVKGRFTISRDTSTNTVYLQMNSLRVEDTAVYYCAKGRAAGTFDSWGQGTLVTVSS
VL: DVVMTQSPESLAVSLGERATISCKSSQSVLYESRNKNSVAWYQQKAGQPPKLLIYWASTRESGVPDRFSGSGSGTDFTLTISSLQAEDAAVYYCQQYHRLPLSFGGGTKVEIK

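The variants were designed computationally from a first round of random CDR variants and then made and measured. Group labels follow the data file (Ctrl: baseline library sampled from a position-specific scoring matrix, with some repeated check sequences; Rand: our label for a block that the file lists under HC and that is probably the random mutants of the ten best first-round binders; En: ensemble of fine-tuned language models; GP: Gaussian process model; GPLM: also part of the Gaussian process libraries; HC: hill climbing; Gen: genetic algorithm; Gibbs: Gibbs sampling; a sequence that several methods proposed may carry one label only). Affinity was read by AlphaSeq, a pooled yeast mating assay with surface-displayed partners. Pairs that bind mate more often; barcode pairs of the diploids are counted by sequencing. Each replicate has its own calibration line, from reference interactions of the BCL2 family. There are six technical replicates.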

The parent's heavy chain CDRs are GFTLNSYGIS, VIYSDGRRTFYGDSVK, GRAAGTFDS; each variant's own CDRs replace them letter for letter. Values are log10 of the apparent Kd in nM; lower means stronger binding. Replicates are averaged; those with no signal do not enter the mean. "not detected" means that the variant was in the library but no mating with the target was seen in any replicate; the authors take this as a sign of poor binding, and no number exists.

CDR-H1	CDR-H2	CDR-H3	group	log10 Kd (nM), mean	replicates with signal	empty controls
GFELNSYGIS	VIYSDGRRTFYGDDVK	GITAGTFDS	GP_Gibbs	0.43	6 of 6	0 of 18
GFTLNSYGIS	VIYSDGRRTFYVDDVK	GEAAGTFKS	GP_HC	2.56	4 of 6	0 of 18
GFDLNEYGIS	VIYADGKRTAYTDSVK	GETAGTFDV	En_Gen	-0.39	6 of 6	0 of 18
GFNLNEYGIS	VIYADGKRTFYTDDVK	GEFAGTFDL	En_HC	-0.39	6 of 6	0 of 18
GNTLNEYGIS	VIYSDGRRTFYHDSVK	GRCAGTFDS	GP_HC	1.18	1 of 6	0 of 18
GFDLNEYGIS	VIYADGMRTFYDDSVK	GQLAGTFDA	En_HC	-1.55	5 of 6	0 of 18
GFTLESYGIS	VIYADGRRTFYGDSVK	GRAAGTFDD	GPLM_Gibbs	0.07	6 of 6	0 of 18
GFDLDEYGIS	VIYADGRRTAYADSVK	GTNAGTFDI	En_Gen	-0.22	6 of 6	0 of 18
GFSLNDYGIS	VIYSDGRRTFYADSVK	GRAAGTFIS	GPLM_HC	not detected	0 of 6	0 of 18
GFLLNEYGIS	VIYSDGRRTFYGDSVK	GEAAGTFDS	GP_Gen	0.59	6 of 6	0 of 18
GETLRSYGIS	VIYSDGRRTFISDSVK	GRAAGTFDS	Ctrl	1.72	2 of 6	0 of 18
GFTLLSYGIS	VIYSDGRLTFYGDSVK	GRAAGTFDQ	Ctrl	not detected	0 of 6	0 of 18
GFQLNSYGIS	VIYSDGRRTFYADSVK	GRTAGTFDT	GP_Gen	0.67	6 of 6	0 of 18
GFDLNAYGIS	VIYSDGRRTFYVDSVK	GQAAGTFDS	GP_Gibbs	0.88	6 of 6	0 of 18
GFQLEEYGIS	VIYADGFRASYTDDVK	GQNGSVNLR	En_Gibbs	2.07	1 of 6	0 of 18
GFDLNEYGIS	VIYADGLRTYYADSVK	GQNAGTFDQ	En_HC	-0.61	6 of 6	1 of 18
GFDLNEYGIS	VIYADGIRTAYSKKFK	GEDGIVLLF	En_Gibbs	not detected	0 of 6	1 of 18
GDSLNSYGIS	VDYSDGRRTFYGDSVK	GRATGTFDA	Ctrl	not detected	0 of 6	0 of 18
GFDLNEYGIS	VIYADGMRTQYADSVK	GQNAGTFDI	En_Gen	0.33	6 of 6	0 of 18
GFDLNEYGIS	VIYADGVRTAYVDSVK	GSNAGTFDV	En_Gen	-0.80	4 of 6	0 of 18
MFTLNDYGIQ	VIYWDGRRTFYGDSVK	GRAALTHIS	Rand	not detected	0 of 6	0 of 18
GFDLNEYGIS	VIYADGRRTFYQDSVK	GTNGGTFDV	En_HC	0.33	6 of 6	1 of 18
GFDLNEYGIS	VIYADGKRTAYSDSVK	GNQAGTFDV	En_Gen	-0.33	6 of 6	0 of 18
GFTLNQYGIS	VIYSDGKRTFYHDSVK	GRAAGTFDS	GP_HC	2.08	5 of 6	0 of 18
GFQLDEYGIS	VIYADGMRTAYADSFK	GNKSTIIGI	En_Gibbs	not detected	0 of 6	0 of 18
GFTLNQYGIS	VIYNCGRRTFYSMSVK	GRSAGQFDL	Rand	not detected	0 of 6	0 of 18
GFDLNEYGIS	VIYSDGKRTFYGDSVK	GRTAGTFDS	GP_Gen	not detected	0 of 6	0 of 18
GFTLNSYGIS	VIYSDGRRTWYSDSVK	GRAAGTFDS	Ctrl	1.12	6 of 6	0 of 18
GFDLNEYGIS	VIYADGRRTFYSDSVK	GSVAGTFDK	En_HC	-0.63	6 of 6	0 of 18
GFDLNEYGIS	VIYADGKRTYYADSVK	GEVAGTFDI	En_Gen	-0.72	6 of 6	1 of 18
GFNLNSYGIS	VIYSDGRRTFYADPVK	GRQAGTFDS	GP_Gibbs	1.20	6 of 6	0 of 18
GFDLNSYGIS	VIYSDGRRTFYGDWVK	GRTAGTFDS	GP_Gen	1.20	6 of 6	1 of 18
GFLLNEYGIS	VIYSDGRRTFYGDSVK	GKAAGTFDS	GP_Gen	0.89	6 of 6	0 of 18
GFSLNSYGIS	VIYSDGRRTFYGDHVK	GRTAGTFDS	GPLM_Gen	0.13	2 of 6	1 of 18
GFDLNEYGIS	VIYADGHRQQYSNNVK	GGQAGIGLS	En_Gibbs	not detected	0 of 6	0 of 18
GFSLNWYGIS	VIYSDGRRTFYIDSVK	GNAAGTFDS	GPLM_Gibbs	1.31	4 of 6	0 of 18
GFTLNSYGIS	VIYADGRRTFYLDSVK	GRLGGTFDS	Ctrl	1.16	2 of 6	0 of 18
GFHLLSYGIS	VIYADGRRTFYADSVK	NSAQGTFDS	Ctrl	not detected	0 of 6	1 of 18
GFCLNSYGIS	VIYSDGRRTFYSDSVK	GQTAGTFDS	GP_Gibbs	not detected	0 of 6	0 of 18
KFTLNSYGIS	VIYSDGKRTFYGDSVK	GRVAGTFDS	GPLM_Gen	2.17	5 of 6	0 of 18
GFDLSEYGIS	VIYADGRRTFYTDSVK	GNVAGTFDV	En_HC	-0.49	6 of 6	0 of 18
GFDLNEYGIS	VIYADGRRTFYTDSVK	GTEAGTFDV	En_HC	-0.57	6 of 6	0 of 18
GFGLNEYGIS	VIYSDGRRTFYHDSVK	GRTAGTFWS	GP_Gibbs	-0.23	6 of 6	0 of 18
GFTLNSYGIS	VIYSDGRRTFYDDSVK	GQEAGTFDD	GP_HC	not detected	0 of 6	0 of 18
GFDLNEYGIS	VIYADGKRTAYVDSVK	GNTAGTFDQ	En_Gen	-1.40	6 of 6	0 of 18
GFDLDEYGIS	VIYADGMRTAYSDSVK	GNNAGTFDT	En_Gen	not detected	0 of 6	0 of 18
GFNLNSYGIS	VIYSDGRRTFYGDQVK	GQTAGTFDS	GP_Gen	1.20	6 of 6	0 of 18
GFDLNEYGIS	VIYADGMRTAYVDSVK	GEVAGTFDQ	En_Gen	-0.22	6 of 6	0 of 18
GFDLNEYGIS	VIYADGRRTAYADNVK	GNQAGTFDV	En_Gen	-0.36	6 of 6	0 of 18
GFDLNEYGIS	VIYADGRRTYYADSVK	GEAAGTFDV	En_HC	-0.52	6 of 6	0 of 18
GFTLDSYGIS	VIYSDGRRTSYGDSVK	GKAAGTFDS	Ctrl	1.96	6 of 6	2 of 18
GFSLNSYGIS	VIYADGRRTFYGDSVK	GEAAGTFDT	GP_Gen	-0.36	6 of 6	0 of 18
GFDLNEYGIS	VIYADGKRTAYADNVK	GNEAGTFDV	En_Gen	0.30	6 of 6	0 of 18
GFSLNNYGIS	VIYSDGRRTFYGDSVK	GRTAGTFDA	GPLM_Gen	0.31	6 of 6	0 of 18
GFDLNEYGIS	VIYADGRRTSYIDSVK	GEAAGTFDL	En_HC	-0.23	6 of 6	0 of 18
GFTLNEYGIS	VIYSDGRRTFYQDSVK	GRAAVTFDT	GP_HC	not detected	0 of 6	1 of 18
GFTLNSYGIS	VIYSDGRRTFYGDSVK	GQEAGTFDA	GPLM_Gibbs	1.13	6 of 6	0 of 18
GFTLNEYGIS	VIYSDGMRTFYGDSVK	GRAAVTFDQ	GPLM_HC	not detected	0 of 6	0 of 18
GFDLDEYGIS	VIYADGRRTAYADSVK	GENAGTFDQ	En_Gen	-0.71	6 of 6	0 of 18

Top 5 of the variants detected in all replicates, tightest first:

CDR-H1,CDR-H2,CDR-H3,group,"log10 Kd (nM), mean",replicates with signal,empty controls
GFDLNEYGIS,VIYADGKRTAYVDSVK,GNTAGTFDQ,En_Gen,-1.40,6 of 6,0 of 18
GFDLNEYGIS,VIYADGKRTYYADSVK,GEVAGTFDI,En_Gen,-0.72,6 of 6,1 of 18
GFDLDEYGIS,VIYADGRRTAYADSVK,GENAGTFDQ,En_Gen,-0.71,6 of 6,0 of 18
GFDLNEYGIS,VIYADGRRTFYSDSVK,GSVAGTFDK,En_HC,-0.63,6 of 6,0 of 18
GFDLNEYGIS,VIYADGLRTYYADSVK,GQNAGTFDQ,En_HC,-0.61,6 of 6,1 of 18

A sequence measured in both rounds can read differently, since the two assays cover different ranges. As a blank, each scFv also met three strains without target: over all heavy chain designs, 1% of these pairings were detected, typically at 2.08 and seldom below 0.84. The control count says in how many pairings with the empty strains this scFv gave a signal. The authors averaged sequences with at least three values out of six and counted those with two or fewer as poor binders. The parent sequence was in this pool as ten entries: three were never detected, three once, and four in most replicates, with averages from 0.34 to 2.37.

Source: Li et al. 2023 (doi:10.1038/s41467-023-39022-2), MIT Lincoln Laboratory and A-Alpha Bio; data file from the FLAb repository.